Source: ChEMBL document CHEMBL5500354, “Novel selective agents for the degradation of AR/AR-V7 to treat advanced prostate cancer” (Eur J Med Chem, 2024)

Sequences of proteins named here, by UniProt entry; tags and fusion partners are left off.
UniProt P03372, whole entry: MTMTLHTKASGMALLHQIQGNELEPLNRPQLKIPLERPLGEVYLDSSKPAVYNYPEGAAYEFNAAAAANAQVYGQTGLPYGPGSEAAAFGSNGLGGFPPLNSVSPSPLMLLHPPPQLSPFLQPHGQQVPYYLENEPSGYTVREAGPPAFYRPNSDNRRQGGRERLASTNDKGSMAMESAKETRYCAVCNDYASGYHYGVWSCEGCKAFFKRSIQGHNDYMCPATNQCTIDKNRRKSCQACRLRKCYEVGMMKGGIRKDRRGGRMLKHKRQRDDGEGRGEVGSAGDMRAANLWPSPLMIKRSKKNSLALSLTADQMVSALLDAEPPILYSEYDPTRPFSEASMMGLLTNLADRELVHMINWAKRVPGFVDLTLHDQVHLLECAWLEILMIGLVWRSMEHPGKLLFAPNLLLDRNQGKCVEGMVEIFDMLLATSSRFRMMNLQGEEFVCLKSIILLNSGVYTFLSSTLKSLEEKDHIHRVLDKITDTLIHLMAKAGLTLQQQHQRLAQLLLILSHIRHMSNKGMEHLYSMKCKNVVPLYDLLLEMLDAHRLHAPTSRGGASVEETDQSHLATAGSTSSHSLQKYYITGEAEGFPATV

Key:
[1] = biological target: Estrogen receptor (Homo sapiens) (UniProt P03372); assay: Induction of estrogen receptor (unknown origin) degradation by Western blot analysis
[2] = biological target: T1, Glucocorticoid receptor (Homo sapiens) (UniProt P04150); assay: Induction of glucocorticoid receptor (unknown origin) degradation by Western blot analysis
T1 sequence (whole entry): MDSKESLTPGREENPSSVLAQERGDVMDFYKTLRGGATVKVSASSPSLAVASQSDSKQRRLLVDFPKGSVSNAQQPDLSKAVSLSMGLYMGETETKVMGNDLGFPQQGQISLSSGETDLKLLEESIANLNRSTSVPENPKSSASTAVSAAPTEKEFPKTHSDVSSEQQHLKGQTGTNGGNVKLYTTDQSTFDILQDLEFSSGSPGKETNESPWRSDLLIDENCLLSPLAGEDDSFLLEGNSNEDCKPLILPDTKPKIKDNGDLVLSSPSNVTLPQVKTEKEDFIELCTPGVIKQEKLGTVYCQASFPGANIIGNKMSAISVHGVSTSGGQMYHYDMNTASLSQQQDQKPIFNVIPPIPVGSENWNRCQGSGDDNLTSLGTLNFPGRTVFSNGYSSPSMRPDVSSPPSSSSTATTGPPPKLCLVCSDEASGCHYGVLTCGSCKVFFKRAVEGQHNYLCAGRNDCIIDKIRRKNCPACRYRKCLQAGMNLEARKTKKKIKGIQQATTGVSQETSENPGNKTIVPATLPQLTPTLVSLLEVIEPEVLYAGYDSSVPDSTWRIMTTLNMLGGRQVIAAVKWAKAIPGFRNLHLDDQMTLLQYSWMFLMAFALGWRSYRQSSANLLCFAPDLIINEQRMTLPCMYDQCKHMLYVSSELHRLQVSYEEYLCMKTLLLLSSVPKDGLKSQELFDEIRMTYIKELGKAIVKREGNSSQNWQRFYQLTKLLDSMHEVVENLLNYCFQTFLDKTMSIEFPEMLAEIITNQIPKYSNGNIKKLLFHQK

[3] = Toxicity in Sprague-Dawley rat at 10 mg/kg, IG measured after 24 hrs; type: organism-based; details: in vivo, po
[4] = Toxicity in Balb/c nude mouse xenografted with human 22Rv1 cells assessed as body weight loss at 10 to 20 mg/kg, ip administered every 3 days for 22 days; type: organism-based, CWR22R; details: in vivo, 528 h, dose 10-20 mg/kg, time 22 day
[5] = biological target: T2, Androgen receptor (Mus musculus) (UniProt P19091); assay: In vivo induction of androgen receptor degradation in Balb/c nude mouse xenografted with human 22Rv1 cells assessed as decrease in AR protein expression in tumor at 10 to 20 mg/kg, ip administered every 3 days for 22 days by DAPI staining based immunohistochemical analysis; type: functional, organism-based; details: CWR22R, dose 10-20 mg/kg, time 22.0 day
T2 sequence (whole entry): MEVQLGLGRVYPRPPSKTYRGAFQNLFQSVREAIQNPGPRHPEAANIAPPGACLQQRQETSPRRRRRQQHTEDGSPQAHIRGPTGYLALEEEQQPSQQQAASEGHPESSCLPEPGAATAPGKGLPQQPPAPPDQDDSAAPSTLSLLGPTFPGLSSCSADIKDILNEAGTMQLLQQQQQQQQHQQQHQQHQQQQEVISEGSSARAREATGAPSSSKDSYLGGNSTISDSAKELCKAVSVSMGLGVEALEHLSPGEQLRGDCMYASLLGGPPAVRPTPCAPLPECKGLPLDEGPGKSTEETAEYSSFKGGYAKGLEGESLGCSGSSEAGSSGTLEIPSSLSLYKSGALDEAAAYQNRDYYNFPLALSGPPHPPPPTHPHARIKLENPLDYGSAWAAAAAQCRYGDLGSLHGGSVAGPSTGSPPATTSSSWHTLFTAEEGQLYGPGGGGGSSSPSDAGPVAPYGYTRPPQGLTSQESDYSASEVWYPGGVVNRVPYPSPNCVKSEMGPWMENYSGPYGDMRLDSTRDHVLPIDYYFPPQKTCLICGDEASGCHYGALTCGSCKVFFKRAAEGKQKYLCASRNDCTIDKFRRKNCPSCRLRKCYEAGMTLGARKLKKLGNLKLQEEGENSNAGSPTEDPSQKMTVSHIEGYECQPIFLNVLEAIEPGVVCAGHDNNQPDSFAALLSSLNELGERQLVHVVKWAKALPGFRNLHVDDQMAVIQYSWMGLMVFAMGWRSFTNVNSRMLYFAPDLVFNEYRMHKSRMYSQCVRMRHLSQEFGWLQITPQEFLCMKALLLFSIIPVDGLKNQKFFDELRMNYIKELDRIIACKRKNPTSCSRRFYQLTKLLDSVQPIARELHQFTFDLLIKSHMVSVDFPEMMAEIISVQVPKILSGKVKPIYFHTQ

Activity [1]: inactive | Activity [2]: inactive | Activity [5]: Active
Compound: N#Cc1ccc(O[C@H]2CC[C@H](NC(=O)c3ccc(N4CCC(Cc5ccc(NC6CN(CCCF)C6)cc5)CC4)nn3)CC2)cc1Cl
Activity [3]: Non-Toxic | Activity [4]: Non-Toxic

Activity calls are given as the source filed them. No cut-off for these calls is given here.
